For the assay, the target named is T1, O-acetylserine sulfhydrylase-A (CysK) from E. coli (E. coli, UniProt P0ABK5 1-323, bound pyridoxal 5'-phosphate (PLP) cofactor).
T1 sequence (looked up): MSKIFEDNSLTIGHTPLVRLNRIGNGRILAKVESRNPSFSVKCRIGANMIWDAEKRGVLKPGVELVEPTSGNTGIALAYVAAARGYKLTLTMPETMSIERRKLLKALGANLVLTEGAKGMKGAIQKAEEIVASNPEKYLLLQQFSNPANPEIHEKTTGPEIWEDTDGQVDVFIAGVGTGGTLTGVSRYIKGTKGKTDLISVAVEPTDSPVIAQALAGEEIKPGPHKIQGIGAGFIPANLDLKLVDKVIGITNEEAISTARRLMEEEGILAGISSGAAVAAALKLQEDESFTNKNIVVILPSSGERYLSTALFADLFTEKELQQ
Nature of the assay: inhibition of enzyme activity.

For 1 molecule, Ki results are on record in publication PMC5957530 (FEBS letters, 2017).

B1: serine acetyltransferase (CysE) from E. coli (enzyme, UniProt P0A9D4 1-273, looked up)
chain: MSCEELEIVWNNIKAEARTLADCEPMLASFYHATLLKHENLGSALSYMLANKLSSPIMPAIAIREVVEEAYAADPEMIASAACDIQAVRTRDPAVDKYSTPLLYLKGFHALQAYRIGHWLWNQGRRALAIFLQNQVSVTFQVDIHPAAKIGRGIMLDHATGIVVGETAVIENDVSILQSVTLGGTGKSGGDRHPKIREGVMIGAGAKILGNIEVGRGAKIGAGSVVLQPVPPHTTAAGVPARIVGKPDSDKPSMDMDQHFNGINHTFEYGDGI
Consider B1, for which the Ki (in general, a dissociation constant, usually derived from enzyme kinetics or from competition with a known ligand) is 6.2 ± 0.7 nM.
